Reference: ChEMBL document CHEMBL1132457, “Pyrazolo[4,3-e]-1,2,4-triazolo[1,5-c]pyrimidine derivatives as highly potent and selective human A(3) adenosine receptor antagonists” (J Med Chem, 1999)

Chains of the proteins cited; added tags and fusions are not shown.
UniProt P30542, whole entry, looked up: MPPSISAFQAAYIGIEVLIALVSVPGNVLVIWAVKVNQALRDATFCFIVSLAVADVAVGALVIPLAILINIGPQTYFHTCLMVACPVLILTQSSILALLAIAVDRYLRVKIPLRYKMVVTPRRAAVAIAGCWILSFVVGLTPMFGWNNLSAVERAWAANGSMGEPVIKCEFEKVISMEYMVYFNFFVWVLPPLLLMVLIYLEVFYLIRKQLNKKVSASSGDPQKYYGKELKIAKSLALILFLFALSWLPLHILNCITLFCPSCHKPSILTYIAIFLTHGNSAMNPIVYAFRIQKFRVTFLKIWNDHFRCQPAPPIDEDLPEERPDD
UniProt P0DMS8, whole entry, looked up: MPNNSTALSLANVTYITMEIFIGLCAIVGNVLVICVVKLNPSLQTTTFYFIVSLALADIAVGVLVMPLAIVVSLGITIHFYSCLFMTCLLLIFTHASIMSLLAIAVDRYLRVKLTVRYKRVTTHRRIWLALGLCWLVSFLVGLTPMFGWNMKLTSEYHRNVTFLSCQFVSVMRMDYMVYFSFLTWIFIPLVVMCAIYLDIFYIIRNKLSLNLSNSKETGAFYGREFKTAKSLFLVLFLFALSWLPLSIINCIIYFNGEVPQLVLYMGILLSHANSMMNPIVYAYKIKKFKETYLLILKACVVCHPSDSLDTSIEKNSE

How the values were obtained:
Assay type in all cases: cell-based
[1] = target: Adenosine receptors; A1 & A3 (Homo sapiens) (UniProt P30542+P0DMS8); test: Ratio of binding affinity for human adenosine A1 and A3 receptors expressed in HEK293 cells
HEK293 [2] = test: Ratio of binding affinity for rat adenosine A2A of striatal membranes and human adenosine A3 receptors expressed in HEK293 cells
HEK293 [3] = test: Ratio of binding affinity for rat adenosine A1 and human adenosine A3 receptors expressed in HEK293 cells
[4] = target: Adenosine receptors; A2a & A3 (Homo sapiens) (UniProt P0DMS8+P29274); test: Ratio of binding affinity for human adenosine A2A and A3 receptors expressed in HEK293 cells

Ratio [1]: 4130
Ratio [4]: 486
SMILES: CCCn1cc2c(nc(NC(=O)Nc3ccc(OC)cc3)n3nc(-c4ccco4)nc23)n1
Ratio (HEK293 [2]): 6870
Ratio (HEK293 [3]): > 34500
